Data published in ChEMBL document CHEMBL4406897 (Bioorg Med Chem, 2019).

Tested on: Plasmodium falciparum
Test: Potency index, ratio of Ki for 5-(3-chlorophenyl)-6-ethylpyrimidine-2,4-diamine to KI for compound for competitive inhibition of wild type Plasmodium falciparum dihydrofolate reductase expressed in Escherichia coli BL21(DE3)pLysS

In the case of `Cl.Nc1nc(N)c(-c2cccc(Cl)c2)c(CCCOc2ccccc2)n1`, the Ratio Ki is reported as 3 to 30.
